The values that follow come from patent publication US20030220310A1, “Epoxy-steroidal aldosterone antagonist and calcium channel blocker combination therapy for treatment of congestive heart failure” (priority 2003, published 2003).

The data set in a line: Thermogravimetric analysis of solvates (desolvation). Type of data set: physicochemical. To be noted: eplerenone crystalline solvate; extrapolated from final solvent weight loss step, TGA, 10° C./minute, nitrogen purge. As for the experimental part: Thermogravimetric analysis of solvates was performed using a TA Instruments TGA 2950 thermogravimetric analyzer. Samples were placed in an unsealed aluminum pan under nitrogen purge. Starting temperature was 25° C. with the temperature increased at a rate of about 10° C./minute.
The unit cell of the solvate is composed of four eplerenone molecules. […] The unit cell of Form H is composed of four eplerenone molecules. The unit cell of Form L is composed of two eplerenone molecules. The solvate unit cells are converted during desolvation into Form H and/or Form L unit cells when the eplerenone molecules undergo translation and rotation to fill the spaces left by the solvent molecules.

Consider `CCCO` [n-Propanol], for which the “Desolvation Temperature” value was 129 °C.
